The results in this text go back to US20080288176A1 (priority 2005, published 2008).

The subject of data set [1] is cardiac tissue prostacyclin (PGI2) to thromboxane A2 (TXB2) ratio. The experiment in a line: Cardiac tissue prostacyclin to thromboxane ratio. The note with it: male Wistar rats. Type of data set: in vivo, rat. The text has this: (§1) Myocardial infarction and ischemic events in high risk patients led one of the most popular COX-2 inhibitors to its demise (Bresalier et al., 2005). Non-selective NSAIDS may also cause similar problems due to their ability to inhibit COX-2. It has been postulated that a shift in the ratio of PGI2 to thromboxane A2 during NSAID treatment would provide early indications of atherogenicity (Krötz et al., 2005). Adenosine diphosphate (ADP) generation is an indicator of myocardial infarction which has no connection with the arachidonic acid cascade (Borna et al., 2005). […] Long term NSAID use has been linked to kidney damage and hypertension (Zafirovska et al., 1993). […] This was associated with an increase in the urine the ratio of alanine-amino-peptidase (AAP) and creatinine.
(§2) Table 1 is a summary of the protocol for a study which was conducted in male Wistar rats weighing 275-300 grams. The animals were allowed to acclimatize for at least five days prior to the commencement of the study. The study protocol was approved by the local animal ethics committee.
All rats were euthanized by removal of the heart 6 hours after initial dosing, following final blood collections. Immediately after terminal blood collections were complete, the thorax was opened and the heart removed. The heart was cut in half longitudinally. Half of the heart was placed in formalin for histological examination. […]

The subject of data set [2] is male Wistar rats. The experiment in a line: Urine alanine aminopeptidase to creatinine ratio (proximal tubular kidney damage). Type of data set: in vivo, rat.
Description: as §1, §2
All test animals, housed in metabolic cages, had urine collected over wet ice for 6 hours after dosing. Aliquots of the urine from each animal were collected to determine creatinine concentration. The remainder of the urine was centrifuged at 1000 g for 10 minutes. […]

Turning to `COc1ccc2cc([C@H](C)C(=O)O)ccc2c1` [NAP, naproxen], the “PGI2/TXA2 ratio comparison (in words)” value in data set [1] is given as “insignificant change”. Further, in data set [2], the “Urine AAP/creatinine ratio change (in words)” value is reported as “no significant increase”.
